Calls of active or inactive are those of the source.
Experiments:
[1] = target: T1, N(G),N(G)-dimethylarginine dimethylaminohydrolase 1 (Homo sapiens, UniProt O94760); experiment: Inhibition of recombinant human DDAH1 expressed in Escherichia coli BL21 Star (DE3) using ADMA as substrate assessed as decrease in citrulline production after 4 hrs by colorimetric method
[2] = target: T1, N(G),N(G)-dimethylarginine dimethylaminohydrolase 1; experiment: Inhibition of recombinant human DDAH1 expressed in Escherichia coli BL21 Star (DE3) using SMTC as substrate assessed as decrease in L-citrulline and methanethiol production at 50 uM by CPM-based fluorimetric assay
[3] = target: T1, N(G),N(G)-dimethylarginine dimethylaminohydrolase 1; experiment: Inhibition of recombinant human DDAH1 expressed in Escherichia coli BL21 Star (DE3) using ADMA as substrate assessed as decrease in citrulline production at 50 uM after 4 hrs by colorimetric method
[4] = target: T1, N(G),N(G)-dimethylarginine dimethylaminohydrolase 1; experiment: Inhibition of recombinant human DDAH1 expressed in Escherichia coli BL21 Star (DE3) using ADMA as substrate assessed as decrease in citrulline production at 50 uM preincubated with protein followed by substrate addition by colorimetric method

By UniProt entry, the sequences of proteins in these tests, tags left out. Where a name states a change or a piece, a line headed by the entry shows the natural chain unless it says otherwise.
UniProt O94760: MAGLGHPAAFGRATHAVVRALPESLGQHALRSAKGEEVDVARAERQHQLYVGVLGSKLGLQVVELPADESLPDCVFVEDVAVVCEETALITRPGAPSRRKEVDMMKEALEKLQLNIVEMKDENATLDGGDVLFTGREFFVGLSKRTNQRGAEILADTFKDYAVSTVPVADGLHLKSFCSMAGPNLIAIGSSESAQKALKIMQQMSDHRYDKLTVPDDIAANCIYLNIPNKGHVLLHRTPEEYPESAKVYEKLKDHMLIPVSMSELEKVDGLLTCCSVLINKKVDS

Measured: inhibition

COc1ccnc(C[S+]([O-])c2nc3cc(OC(F)F)ccc3[nH]2)c1OC (centres undefined) [PANTOPRAZOLE]
active: [1] Dose-dependent effect | [2] | [3] | [4]

Reference: ChEMBL document CHEMBL3882738, “Dimethylarginine Dimethylaminohydrolase inhibitors and methods of use thereof” (2014)
